Test results taken from PubChem BioAssay (NCI).
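Step 1: Grow cells in 96-well plates. Step 2: Expose to compound for 48 hours at 5 concentrations. Step 3: Interpolate endpoints linearly; if unreached, use highest concentration. At the GI50, growth is halved. TGI: concentration producing complete growth inhibition.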

Assays:
Experiment in all cases: DTP human tumour cell line panel, 48 h
HOP-62 NSCLC = system: HOP-62 NSCLC
UACC-257 melanoma = system: UACC-257 melanoma
HCT-15 colon = system: HCT-15 colon
T-47D breast = system: T-47D breast
A549 NSCLC = system: A549 NSCLC
OVCAR-3 ovarian = system: OVCAR-3 ovarian
OVCAR-8 ovarian = system: OVCAR-8 ovarian
EKVX NSCLC = system: EKVX NSCLC
UO-31 renal = system: UO-31 renal
ACHN renal = system: ACHN renal
RPMI-8226 leukemia = system: RPMI-8226 leukemia
NCI/ADR-RES ovarian = system: NCI/ADR-RES ovarian
KM12 colon = system: KM12 colon
SNB-19 CNS = system: SNB-19 CNS
OVCAR-5 ovarian = system: OVCAR-5 ovarian
786-0 renal = system: 786-0 renal
SNB-75 CNS = system: SNB-75 CNS
NCI-H322M lung = system: NCI-H322M lung
NCI-H23 lung = system: NCI-H23 lung
SK-MEL-2 melanoma = system: SK-MEL-2 melanoma
HS 578T breast = system: HS 578T breast
OVCAR-4 ovarian = system: OVCAR-4 ovarian
IGROV1 ovarian = system: IGROV1 ovarian
NCI-H522 lung = system: NCI-H522 lung
SK-MEL-5 melanoma = system: SK-MEL-5 melanoma
UACC-62 melanoma = system: UACC-62 melanoma
SF-268 CNS = system: SF-268 CNS
SF-295 CNS = system: SF-295 CNS
MOLT-4 leukemia = system: MOLT-4 leukemia
COLO 205 colon = system: COLO 205 colon

O=C(OCC(F)([N+](=O)[O-])[N+](=O)[O-])OCC(F)([N+](=O)[O-])[N+](=O)[O-]
GI50 (HOP-62 NSCLC): 8.7 µM
TGI (HOP-62 NSCLC): 23.4 µM
GI50 (UACC-257 melanoma): 6.28 µM
TGI (UACC-257 melanoma): 22 µM
GI50 (HCT-15 colon): 1.73 µM
TGI (HCT-15 colon): 6.25 µM
GI50 (T-47D breast): 3.43 µM
TGI (T-47D breast): 19.1 µM
GI50 (A549 NSCLC): 3.05 µM
TGI (A549 NSCLC): 20.4 µM
GI50 (OVCAR-3 ovarian): 4.35 µM
TGI (OVCAR-3 ovarian): 17.3 µM
GI50 (OVCAR-8 ovarian): 3.39 µM
TGI (OVCAR-8 ovarian): 16.1 µM
GI50 (EKVX NSCLC): 5.65 µM
TGI (EKVX NSCLC): 20.6 µM
GI50 (UO-31 renal): 7.68 µM
TGI (UO-31 renal): 21.5 µM
GI50 (ACHN renal): 3.14 µM
TGI (ACHN renal): 15 µM
GI50 (RPMI-8226 leukemia): 0.339 µM
TGI (RPMI-8226 leukemia): 23.3 µM
GI50 (NCI/ADR-RES ovarian): 5.07 µM
TGI (NCI/ADR-RES ovarian): 25.4 µM
GI50 (KM12 colon): 6.18 µM
TGI (KM12 colon): 19.9 µM
GI50 (SNB-19 CNS): 2.48 µM
TGI (SNB-19 CNS): 29.7 µM
GI50 (OVCAR-5 ovarian): 8.5 µM
TGI (OVCAR-5 ovarian): 28.6 µM
GI50 (786-0 renal): 4.46 µM
TGI (786-0 renal): 16.4 µM
GI50 (SNB-75 CNS): 0.301 µM
TGI (SNB-75 CNS): 2.89 µM
GI50 (NCI-H322M lung): 12.4 µM
TGI (NCI-H322M lung): 27 µM
GI50 (NCI-H23 lung): 4.71 µM
TGI (NCI-H23 lung): 20.7 µM
GI50 (SK-MEL-2 melanoma): 5.36 µM
TGI (SK-MEL-2 melanoma): 31 µM
GI50 (HS 578T breast): 0.552 µM
TGI (HS 578T breast): 3.17 µM
GI50 (OVCAR-4 ovarian): 10.8 µM
TGI (OVCAR-4 ovarian): 24.1 µM
GI50 (IGROV1 ovarian): 2.81 µM
TGI (IGROV1 ovarian): 15 µM
GI50 (NCI-H522 lung): 0.541 µM
TGI (NCI-H522 lung): 2.55 µM
GI50 (SK-MEL-5 melanoma): 1.99 µM
TGI (SK-MEL-5 melanoma): 8.51 µM
GI50 (UACC-62 melanoma): 2.02 µM
TGI (UACC-62 melanoma): 10.7 µM
GI50 (SF-268 CNS): 5.47 µM
TGI (SF-268 CNS): 20.1 µM
GI50 (SF-295 CNS): 13.6 µM
TGI (SF-295 CNS): 29.4 µM
GI50 (MOLT-4 leukemia): 1.97 µM
TGI (MOLT-4 leukemia): 22.3 µM
GI50 (COLO 205 colon): 1.25 µM
TGI (COLO 205 colon): 2.76 µM
